Results taken from PubChem BioAssay AID2662 (National Center for Advancing Translational Sciences (NCATS), 2010).
This is a selection; strong and weak results do not stand in their true shares. Some salts and complexes are drawn in separate pieces, as the source files them; their charges need not balance. Calls of active or inactive are those of the source. The call rests on the fitted dose curve; in most records, active means well fitted inhibition curve with a large enough effect in the polarisation, with a control signal flat (not every such curve was filed as active); inconclusive means small, poorly fitted or top-dose-only effect, or effect the other way, or a change in a side signal; inactive means no such curve, though single readings can be large or run the other way; the % refers to the polarisation.

By UniProt entry, the sequences of proteins in these tests, tags left out.
UniProt Q03164, whole entry: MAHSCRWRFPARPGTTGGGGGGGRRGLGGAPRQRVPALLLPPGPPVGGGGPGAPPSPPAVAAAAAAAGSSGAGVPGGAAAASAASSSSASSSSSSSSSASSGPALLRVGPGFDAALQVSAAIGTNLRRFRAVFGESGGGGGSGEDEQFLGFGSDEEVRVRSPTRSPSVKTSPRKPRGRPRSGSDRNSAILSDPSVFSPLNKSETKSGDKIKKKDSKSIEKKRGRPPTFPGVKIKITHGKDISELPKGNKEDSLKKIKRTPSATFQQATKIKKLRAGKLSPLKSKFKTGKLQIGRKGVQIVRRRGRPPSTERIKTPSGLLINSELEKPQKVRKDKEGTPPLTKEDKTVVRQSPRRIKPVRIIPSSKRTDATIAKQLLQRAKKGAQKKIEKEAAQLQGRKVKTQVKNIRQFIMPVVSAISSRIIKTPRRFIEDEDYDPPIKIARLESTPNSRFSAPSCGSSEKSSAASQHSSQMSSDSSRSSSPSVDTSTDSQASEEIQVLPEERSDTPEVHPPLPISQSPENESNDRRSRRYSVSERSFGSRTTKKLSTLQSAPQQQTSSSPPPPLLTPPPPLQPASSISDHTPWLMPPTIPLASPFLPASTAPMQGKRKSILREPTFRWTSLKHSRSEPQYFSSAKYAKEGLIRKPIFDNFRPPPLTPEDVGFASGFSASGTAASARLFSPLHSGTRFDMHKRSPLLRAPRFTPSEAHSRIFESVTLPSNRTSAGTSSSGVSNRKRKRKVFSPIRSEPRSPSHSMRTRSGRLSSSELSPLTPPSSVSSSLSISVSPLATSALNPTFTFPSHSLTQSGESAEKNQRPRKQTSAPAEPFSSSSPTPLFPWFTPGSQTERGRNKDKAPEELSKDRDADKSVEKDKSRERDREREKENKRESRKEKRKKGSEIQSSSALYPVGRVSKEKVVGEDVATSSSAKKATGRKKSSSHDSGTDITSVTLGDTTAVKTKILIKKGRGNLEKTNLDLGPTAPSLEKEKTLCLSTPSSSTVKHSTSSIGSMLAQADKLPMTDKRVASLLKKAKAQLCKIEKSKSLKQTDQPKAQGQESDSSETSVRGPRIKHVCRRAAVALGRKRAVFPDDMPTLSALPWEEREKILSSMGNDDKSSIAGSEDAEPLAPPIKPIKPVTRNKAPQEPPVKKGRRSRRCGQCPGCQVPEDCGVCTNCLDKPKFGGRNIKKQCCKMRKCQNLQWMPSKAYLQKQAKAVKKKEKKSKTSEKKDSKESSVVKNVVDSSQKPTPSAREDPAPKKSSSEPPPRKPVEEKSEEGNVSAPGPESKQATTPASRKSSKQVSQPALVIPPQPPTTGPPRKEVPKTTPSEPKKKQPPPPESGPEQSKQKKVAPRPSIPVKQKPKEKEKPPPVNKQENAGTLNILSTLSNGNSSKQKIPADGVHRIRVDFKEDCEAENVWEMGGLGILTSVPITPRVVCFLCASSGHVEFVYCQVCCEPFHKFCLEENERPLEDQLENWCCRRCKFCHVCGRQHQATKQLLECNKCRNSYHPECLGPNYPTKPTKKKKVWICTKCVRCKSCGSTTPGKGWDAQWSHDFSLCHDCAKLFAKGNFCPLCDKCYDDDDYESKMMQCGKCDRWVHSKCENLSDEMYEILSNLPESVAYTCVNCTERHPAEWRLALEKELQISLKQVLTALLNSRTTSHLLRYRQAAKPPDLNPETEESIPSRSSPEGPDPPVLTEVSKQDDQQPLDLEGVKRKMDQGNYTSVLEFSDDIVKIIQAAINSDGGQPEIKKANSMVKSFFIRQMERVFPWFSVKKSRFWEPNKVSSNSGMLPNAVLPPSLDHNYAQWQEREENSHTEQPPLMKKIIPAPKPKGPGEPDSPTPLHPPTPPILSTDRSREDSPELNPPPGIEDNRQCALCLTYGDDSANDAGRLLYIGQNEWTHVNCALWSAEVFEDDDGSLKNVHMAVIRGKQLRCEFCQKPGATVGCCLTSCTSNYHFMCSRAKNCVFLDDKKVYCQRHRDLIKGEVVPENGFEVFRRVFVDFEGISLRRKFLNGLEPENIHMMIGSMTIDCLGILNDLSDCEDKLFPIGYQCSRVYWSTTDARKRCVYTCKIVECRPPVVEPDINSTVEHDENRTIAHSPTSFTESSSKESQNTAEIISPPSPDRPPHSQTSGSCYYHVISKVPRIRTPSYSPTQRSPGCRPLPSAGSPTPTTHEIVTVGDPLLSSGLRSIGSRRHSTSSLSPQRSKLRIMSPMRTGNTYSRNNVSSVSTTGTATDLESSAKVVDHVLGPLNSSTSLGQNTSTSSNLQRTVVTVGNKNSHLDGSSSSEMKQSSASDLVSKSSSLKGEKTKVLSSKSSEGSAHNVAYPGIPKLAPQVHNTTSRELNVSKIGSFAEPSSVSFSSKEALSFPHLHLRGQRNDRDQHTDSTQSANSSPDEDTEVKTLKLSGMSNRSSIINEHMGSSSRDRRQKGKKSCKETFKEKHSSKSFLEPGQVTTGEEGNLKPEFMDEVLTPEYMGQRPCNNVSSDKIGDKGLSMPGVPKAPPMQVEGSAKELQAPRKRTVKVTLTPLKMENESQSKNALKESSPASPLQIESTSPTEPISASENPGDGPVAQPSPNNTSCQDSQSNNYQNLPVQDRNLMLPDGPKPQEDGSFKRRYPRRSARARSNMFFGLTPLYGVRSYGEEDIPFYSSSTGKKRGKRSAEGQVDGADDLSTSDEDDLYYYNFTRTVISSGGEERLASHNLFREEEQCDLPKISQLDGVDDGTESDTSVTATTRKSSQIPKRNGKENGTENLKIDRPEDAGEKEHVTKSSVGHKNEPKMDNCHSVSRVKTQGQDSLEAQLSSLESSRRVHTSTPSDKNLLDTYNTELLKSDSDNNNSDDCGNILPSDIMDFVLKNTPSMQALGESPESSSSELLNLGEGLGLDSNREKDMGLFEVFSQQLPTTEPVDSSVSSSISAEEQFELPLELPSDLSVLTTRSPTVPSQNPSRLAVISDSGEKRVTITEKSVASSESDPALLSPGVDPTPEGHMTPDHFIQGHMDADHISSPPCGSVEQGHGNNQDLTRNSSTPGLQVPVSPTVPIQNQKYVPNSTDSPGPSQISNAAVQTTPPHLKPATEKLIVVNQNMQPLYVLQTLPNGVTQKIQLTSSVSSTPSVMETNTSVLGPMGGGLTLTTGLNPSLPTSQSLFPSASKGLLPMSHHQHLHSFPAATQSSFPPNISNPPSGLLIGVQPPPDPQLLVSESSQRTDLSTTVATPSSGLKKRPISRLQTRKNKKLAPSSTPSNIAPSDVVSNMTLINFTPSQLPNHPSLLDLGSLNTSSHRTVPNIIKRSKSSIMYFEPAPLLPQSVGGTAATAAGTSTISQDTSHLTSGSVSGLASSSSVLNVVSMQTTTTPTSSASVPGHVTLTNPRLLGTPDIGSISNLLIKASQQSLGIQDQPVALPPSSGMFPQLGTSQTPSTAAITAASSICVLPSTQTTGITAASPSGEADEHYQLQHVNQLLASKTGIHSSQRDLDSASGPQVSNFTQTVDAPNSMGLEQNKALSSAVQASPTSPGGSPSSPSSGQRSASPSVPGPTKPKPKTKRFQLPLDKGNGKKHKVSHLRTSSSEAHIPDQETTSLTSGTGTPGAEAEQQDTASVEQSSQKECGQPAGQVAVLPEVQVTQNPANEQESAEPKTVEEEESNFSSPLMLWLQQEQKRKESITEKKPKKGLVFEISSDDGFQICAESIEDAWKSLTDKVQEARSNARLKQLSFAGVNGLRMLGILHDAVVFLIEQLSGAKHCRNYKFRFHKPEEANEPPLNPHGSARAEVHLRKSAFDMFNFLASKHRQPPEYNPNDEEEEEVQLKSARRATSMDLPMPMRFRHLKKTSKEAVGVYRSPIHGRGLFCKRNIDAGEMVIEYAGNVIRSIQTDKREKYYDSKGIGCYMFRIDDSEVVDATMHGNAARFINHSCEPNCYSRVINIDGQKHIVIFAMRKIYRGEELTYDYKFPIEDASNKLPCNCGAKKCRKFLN

target: Histone-lysine N-methyltransferase 2A (Homo sapiens) (UniProt Q03164); test: qHTS Fluorescence Polarization Assay for Inhibitors of MLL CXXC domain - DNA interaction; settings: MLL-CXXC / FITC-HOXA9 DNA fluorescence polarization; at 115 µM (top of the series)

SMILES | activity change, negative = inhibition
O=C(O)C1(Nc2ccccc2)CCN(Cc2ccccc2)CC1 | inactive: 13.4%
CC(C)(C)OC(=O)N1CCC(Nc2ccccc2)CC1 | inactive: -6.23%
CCCOc1ccc(C(=O)NCC2(N(C)C)CCCCC2)cc1 | inactive: 6.36%
CN1CCC(Nc2ccc(F)c(Cl)c2)CC1 | inactive: -2.7%
CCOc1ncccc1C(=O)NCC1(N2CCOCC2)CCCCC1 | inactive: -1.1%
CN1CCC(Nc2ccc(Cl)cc2)CC1 | inactive: -1.25%
CCCOc1ccc(C)cc1CN(CCCl)CCCl | inactive: 5.74%
COc1cc(OC)cc(C(=O)NCC2(N3CCOCC3)CCCCC2)c1 | inactive: 5.01%
CCC(CO)(C(=O)OC1CN2CCC1CC2)c1ccccc1 (centres undefined) | inactive: 6.8%
Fc1ccccc1NC1CCN(Cc2ccccc2)CC1 | inactive: -1.62%
COc1cc(OC)cc(C(=O)NCC2(N3CCCCC3)CCCCC2)c1 | inactive: 3.17%
CN(C)c1ccc(C(=O)NCC2(N3CCCCC3)CCCCC2)cc1 | inactive: -2.96%
CCN1CCC(Nc2cccc(F)c2)CC1 | inactive: -4.66%
CCOC(=O)C(CC)C1=NC(C)(C)Cc2ccccc21.O=[N+]([O-])c1cc([N+](=O)[O-])c(O)c([N+](=O)[O-])c1 (centres undefined) | inactive: -1.2%
N#Cc1ccc(C(=O)NCC2(N3CCCCC3)CCCCC2)cc1 | inactive: 4.27%
CC(C)(C)OC(=O)N1CCC(N(C(=O)c2ccccc2)c2ccc(Cl)cc2)CC1 | inactive: -2.22%
CN(C)C1(CNC(=O)c2cccc(C#N)c2)CCCCC1 | inactive: 10.7%
CCCN1CCC(Nc2cc(OC)cc(OC)c2)CC1 | inactive: -0.508%
c1ccc(CN2CCC(Nc3ccccc3)CC2)cc1 | inactive: 13.4%
COc1ccc(C(=O)NCC2(N3CCOCC3)CCCCC2)cc1OC | inactive: 4.07%

SMILES | activity change, negative = inhibition
O=C(O)c1cccc(Nc2c([N+](=O)[O-])cc([N+](=O)[O-])cc2[N+](=O)[O-])c1 | inactive: -32.5%
O=C(OC1CN2CCC1CC2)C1c2ccccc2C=Cc2ccccc21 (centres undefined) | inactive: 2.24%
CCOC(=O)N1CCC(Nc2ccc(C)cc2)CC1 | inactive: 10.6%
N/C(=N\O)c1c(N)no[n+]1[O-] | inactive: 4.48%
COc1cc(OC)c(C(=O)NCC2(N(C)C)CCCCC2)cc1OC | inactive: -2.31%
CC(C)c1ccc(NC2CCN(C(=O)OC(C)(C)C)CC2)cc1 | inactive: 7.21%
O=[N+]([O-])c1cc([N+](=O)[O-])c(OC2CCCCC2O)c([N+](=O)[O-])c1 (centres undefined) | inactive: -8.61%
CN(C)c1cccc(C(=O)NCC2(N3CCCCC3)CCCCC2)c1 | inactive: -4.11%
COc1ccc(CN(CCCl)CCCl)cc1Cl | inactive: 22.2%
CCCOc1ccc(C(=O)NCC2(N(C)C)CCCCC2)cc1OC | inactive: -12.9%
O=C(OC1CN2CCC1CC2)c1ccc([N+](=O)[O-])cc1 (centres undefined) | inactive: 2.98%
COc1ccc2c(c1O)-c1c(O)c(OC)cc3c1[C@H](C2)[N+](C)(C)CC3.O=[N+]([O-])c1cc([N+](=O)[O-])c([O-])c([N+](=O)[O-])c1[O-] | inactive: 0.319%
N#CC1(Nc2ccccc2)CCN(CCc2ccccc2)CC1 | inactive: 3.94%
CCN1CCC(Nc2ccc(Cl)cc2)CC1 | inactive: -4.11%
O=C(NCC1(N2CCCCC2)CCCCC1)c1cccc([N+](=O)[O-])c1 | inactive: 3.17%
O=C(NCC1(N2CCCCC2)CCCCC1)c1ccc(OC(F)F)cc1 | inactive: 1.23%
COc1cc(C(=O)NCC2(N3CCCCC3)CCCCC2)ccc1OC(F)F | inactive: 2.97%
O=C(NCC1(N2CCOCC2)CCCCC1)c1cc(=O)[nH]c2ccccc12 | inactive: -3.02%
CN1CCN(CCOC(=O)C(O)(c2ccccc2)c2ccccc2)CC1 | inactive: 7.58%
COc1ccc(NC2CCN(C(=O)OC(C)(C)C)CC2)cc1 | inactive: 4.36%

SMILES | activity change, negative = inhibition
O=[N+]([O-])c1cc([N+](=O)[O-])c(NCC2CCS(=O)(=O)C2)c([N+](=O)[O-])c1 (centres undefined) | inactive: -2.45%
O=C(NCC1(N2CCCCC2)CCCCC1)c1cccc(C(F)(F)F)c1 | inactive: 1.35%
COc1ccc(NC2CCN(CCc3ccccc3)CC2)c(OC)c1 | inactive: -0.243%
CCOC(=O)N1CCC(Nc2ccc(F)cc2)CC1 | inactive: 5.88%
O=C(NCC1(N2CCCCC2)CCCCC1)c1ccc(F)cc1 | inactive: 6.89%
CCOc1ccc(C)cc1CN(CCCl)CCCl | inactive: -6.99%
Cc1ccc(OCC(C)C)c(CN(CCCl)CCCl)c1 | inactive: -0.0695%
COc1cc(C(=O)NCC2(N(C)C)CCCCC2)ccc1OC(F)F | inactive: 8.66%
CCOC(=O)N1CCC(Nc2cccc(C)c2)CC1 | inactive: 16.7%
CSc1ccccc1C(=O)NCC1(N2CCCCC2)CCCCC1 | inactive: 8.15%
CC(C)(C)OC(=O)N1CCC(N(C(=O)c2ccccc2)c2ccc(F)cc2)CC1 | inactive: -3.44%
COc1ccc(C(=O)NCC2(N3CCCCC3)CCCCC2)c(OC)c1OC | inactive: 1.25%
COc1ccc(C(=O)NCC2(N3CCCCC3)CCCCC2)cc1 | inactive: 3.21%
O=C(NCC1(N2CCCCC2)CCCCC1)c1ccc(=O)[nH]c1 | inactive: 4%
O=C(OC1CN2CCC1CC2)C1c2ccccc2Oc2ccccc21 (centres undefined) | inactive: 7.96%
N#CC1(Nc2ccccc2)CCN(Cc2ccccc2)CC1 | inactive: -2.18%
CCOC(=O)N1CCC(Nc2ccc(OC)cc2)CC1 | inactive: -15.5%
Cc1cc(C)cc(N(C(=O)c2ccccc2)C2CCN(C(=O)OC(C)(C)C)CC2)c1 | inactive: 0.858%
O=C(NCC1(N2CCOCC2)CCCCC1)c1cc2ccccc2o1 | inactive: 3.93%
